Here are results for one substance from PMC8844822, “SARM1 is a multi-functional NAD(P)ase with prominent base exchange activity, all regulated bymultiple physiologically relevant NAD metabolites” (iScience, 2022).

In experiment [1] the target is T1, hSARM1 full length (Homo sapiens, UniProt Q6SZW1).
T1 construct: Human recombinant SARM1 full length proteins (wild-type and E642A mutant); made in house; host or cells: HEK 293T cells
T1 sequence (Q6SZW1 28-724): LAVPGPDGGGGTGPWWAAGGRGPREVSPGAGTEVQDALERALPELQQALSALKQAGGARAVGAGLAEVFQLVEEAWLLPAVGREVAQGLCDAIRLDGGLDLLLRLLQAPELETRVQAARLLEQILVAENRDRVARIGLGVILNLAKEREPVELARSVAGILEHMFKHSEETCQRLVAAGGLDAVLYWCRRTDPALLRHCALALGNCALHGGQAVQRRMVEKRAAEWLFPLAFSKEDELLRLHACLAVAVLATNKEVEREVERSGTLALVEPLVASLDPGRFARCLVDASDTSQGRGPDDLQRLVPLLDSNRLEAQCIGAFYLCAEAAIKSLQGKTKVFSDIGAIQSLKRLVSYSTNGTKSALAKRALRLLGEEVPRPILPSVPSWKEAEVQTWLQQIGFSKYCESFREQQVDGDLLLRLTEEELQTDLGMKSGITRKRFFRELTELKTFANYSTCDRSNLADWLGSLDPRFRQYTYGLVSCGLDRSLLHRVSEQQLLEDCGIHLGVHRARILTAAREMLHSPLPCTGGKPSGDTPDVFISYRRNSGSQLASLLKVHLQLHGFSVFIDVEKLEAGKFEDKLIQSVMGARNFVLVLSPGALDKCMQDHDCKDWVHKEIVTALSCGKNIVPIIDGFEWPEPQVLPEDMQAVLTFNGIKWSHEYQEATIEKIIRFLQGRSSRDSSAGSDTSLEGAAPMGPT
Nature of the experiment: NAD(P)ase activity by HPLC (kinetics, substrates, metal ions). It is filed as biochemical. The procedure: (§1) hSARM1 species were routinely assayed by the NAD/NADH-Glo^TM Assay (Promega) while both Aplysia cyclase and CD38 were assayed by fluorometry using ϵNAD ([Orsomando et al., 2000]). […] Other reagents used in addition to, or in place of those above are detailed in text or in figure legends, for example metal ions, free bases, dinucleotide analogues, mononucleotides, and ribosides. Assays were all carried out at 25°C except for temperature studies. Reactions were stopped by HClO4/K2CO3 and analysed by C18-HPLC as reported ([Mori et al., 2014]). Only the acid labile NADH and NADPH were treated with 1 N NaOH and neutralized using 1:1 vol of 1.73 M KH2CO3 while the highly hydrophobic metabolites vacor, VAD, VMN and VR, were analysed by a modified C18-HPLC method ([Buonvicino et al., 2018]). Reaction products were quantified from peak areas (see Figure 2A) based on coelution with standards (except for cyclic products from NAD analogues that were not available and were attributed based on UV-spectra and retention times as predicted). Rates were calculated as follows. Hydrolysis and cyclization were measured from product generation from the respective individual dinucleotide substrate used, e.g., free and cyclic ADP-ribosyl moieties from NAD (Figure 1B). A basal value for hydrolysis/cyclization was taken as sum of these latter two products. In addition to that value, base exchange or transglycosidation was calculated from the expected dinucleotide analog formed in the presence of the corresponding free base, e.g., AcPyrAD from AcPyr and NAD.
(§2) The kinetic parameters were calculated from initial rates obtained from replicates via best-fitting analysis using the following Equation 1 for CD38 and Aplysia cyclase, or Equation 2 for hSARM1 SAM-TIR, or Equation 3 for hSARM1 full length(Equation 1) V =Vmax[S]/Km+[S] […] In that case, the resulting single curves were fit to Equation 3 as above to evaluate any competition between NMN and the substrate used (see Table 1).

In experiment [2] the target is T2, hSARM1 SAM-TIR (Homo sapiens, UniProt Q6SZW1).
T2 construct: wild type SAM-TIR fragment Val409-Thr724 were expressed in HEK 293T cells; made in house; host or cells: HEK 293T cells
T2 sequence (Q6SZW1 409-724): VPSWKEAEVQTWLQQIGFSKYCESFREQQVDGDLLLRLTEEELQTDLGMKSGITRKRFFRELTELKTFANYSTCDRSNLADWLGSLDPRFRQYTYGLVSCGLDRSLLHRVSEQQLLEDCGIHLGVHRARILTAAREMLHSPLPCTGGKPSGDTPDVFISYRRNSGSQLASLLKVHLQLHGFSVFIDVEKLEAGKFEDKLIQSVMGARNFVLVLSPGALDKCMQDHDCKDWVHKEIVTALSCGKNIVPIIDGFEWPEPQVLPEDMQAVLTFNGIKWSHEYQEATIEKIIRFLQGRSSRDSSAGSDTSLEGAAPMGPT
The experiment is classed as biochemical. How it is done:
as §1, §2

[3] abbreviates: hSARM1 full length +NMN 5μM, n=1.
The mark [4] stands for this setting: hSARM1 full length +NMN 10μM, n=1.
Where [5] appears, read: hSARM1 full length +NMN 20μM, n=1.
[6] abbreviates: hSARM1 full length +NMN 50μM, n=1.

As for “nicotinamide adenine dinucleotide phosphate [NADP]”, the Michaelis-Menten constant (Km) in experiment [1] (setting [3]) is 29.3 µM; in experiment [1] (setting [4]), 45.9 µM; in experiment [1] (setting [5]), 45 µM; in experiment [1] (setting [6]) it was 91.7 µM; in experiment [1] (hSARM1 full length, no NMN), 66.9 ± 32.6 µM; in experiment [2] it was 83.5 ± 11.9 µM. For the same substance, the Vmax in experiment [1] (setting [3]) worked out at 15.7 mU/mg; in experiment [1] (setting [4]), 29.9 mU/mg; in experiment [1] (setting [5]) it was 52.2 mU/mg; in experiment [1] (setting [6]), 98.1 mU/mg; in experiment [1] (hSARM1 full length, no NMN), 14.3 ± 3.14 mU/mg; in experiment [2], 582 ± 46.9 mU/mg. The Kcat in experiment [1] (hSARM1 full length, re-elaborated from Table 1) amounted to 0.019 ± 0.004 s⁻¹; in experiment [2] (re-elaborated from Table 1), 0.361 ± 0.029 s⁻¹.
